We go through three compounds from patent publication US20260184707A1, “PHARMACEUTICAL COMPOUNDS FOR THE TREATMENT OF COMPLEMENT MEDIATED DISORDERS” (ALEXION PHARMACEUTICALS, INC., priority 2022, published 2026).

Sequences of proteins named here, by UniProt entry; tags and fusion partners are left off. Residues count along the entry.
UniProt P09871, 438-688 limits assumed: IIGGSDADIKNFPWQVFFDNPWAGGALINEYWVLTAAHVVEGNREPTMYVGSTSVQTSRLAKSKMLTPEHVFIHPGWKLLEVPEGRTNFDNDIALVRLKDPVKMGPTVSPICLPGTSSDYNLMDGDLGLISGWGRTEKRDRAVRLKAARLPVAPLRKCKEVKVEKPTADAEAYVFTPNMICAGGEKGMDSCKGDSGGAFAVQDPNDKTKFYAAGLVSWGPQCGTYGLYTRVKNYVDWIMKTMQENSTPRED
UniProt P09871, 16-437 partner limits assumed: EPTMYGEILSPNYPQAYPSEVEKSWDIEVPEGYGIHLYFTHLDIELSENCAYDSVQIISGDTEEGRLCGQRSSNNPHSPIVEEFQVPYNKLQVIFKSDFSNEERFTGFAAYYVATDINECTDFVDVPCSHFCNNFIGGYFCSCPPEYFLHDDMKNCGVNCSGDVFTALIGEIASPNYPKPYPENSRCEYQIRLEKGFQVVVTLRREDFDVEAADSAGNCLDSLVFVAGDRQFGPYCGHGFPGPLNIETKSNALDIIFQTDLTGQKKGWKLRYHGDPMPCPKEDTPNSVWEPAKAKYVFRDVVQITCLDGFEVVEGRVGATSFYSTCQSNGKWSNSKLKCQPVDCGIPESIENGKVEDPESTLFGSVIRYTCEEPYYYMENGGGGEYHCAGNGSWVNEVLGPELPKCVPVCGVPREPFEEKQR

This assay concerns the target Human complement C1s enzyme (Homo sapiens, UniProt P09871). As to the kind of experiment: Human C1s enzyme assay. In kind it is biochemical. The settings on record: read-out: IC50 (Stars); human complement C1s enzyme 1.16 nM, substrate Z-L-Lys-SBzl, A405. On the procedure: The […] values of the compounds of Table 1 were determined with the human C1s enzyme assay described below. Other standard complement assays are also available.
Human complement C1s enzyme (purified from human serum, Complement Technology, Inc.) at 1.16 nM final concentration was incubated with test compound at various concentrations for 5 min at room temperature in 50 mM Tris, 1 M NaCl, pH 7.5. A synthetic substrate Z-L-Lys-SBzl and DTNB (Ellman's reagent) were added to final concentrations of 100 μM each. Absorbance at 405 nm (A405) was recorded at 30 second intervals for […] using a microplate spectrophotometer. IC values were calculated by nonlinear regression of complement C1s reaction rates as a function of test compound concentration.
[…]; ND indicates a compound for which the IC50 value is not determined.

Consider `O=C(Cn1c(-c2ccccc2)ncc(NCCCc2ccc(OCF)cc2)c1=O)NCc1cc2cnccc2[nH]1`, for which the IC50 is less than 100 nM. To `C[C@@H](Nc1cnc(-c2ccccc2F)n(CC(=O)NCc2cc3cnccc3[nH]2)c1=O)c1ccc2oc3cccc(F)c3c2c1` belongs less than 100 nM.

For the compound `C[C@@H](Nc1cnc(-c2ccccc2F)n(CC(=O)NCc2cc3cnccc3[nH]2)c1=O)c1ccc2oc3ccc(F)cc3c2c1`, the IC50 was less than 100 nM.
